Assay results from article PMC9438229.

Target: low-density lipoprotein receptor-related protein 1 (LRP1) (human (endogenous in iPSC-derived neurons)) (UniProt Q07954)

uptake of lysine-capped α-Syn into WT iPSNs by flow cytometry, reduction against uncapped α-Syn: 50 % reduction
Substance: lysine-capped α-synuclein (from UniProt P37840 1-140) (natural protein)
